BigSolDB 2.1

CC[C@H]1OC(=O)C[C@@H](O)[C@H](C)[C@@H](O[C@@H]2O[C@H](C)[C@@H](O[C@H]3C[C@@](C)(O)[C@@H](O)[C@H](C)O3)[C@H](N(C)C)[C@H]2O)[C@@H](CC=O)C[C@@H](C)C(=O)/C=C/C(C)=C/[C@@H]1CO[C@@H]1O[C@H](C)[C@@H](O)[C@@H](OC)[C@H]1OC.O=C(O)[C@H](O)[C@@H](O)C(=O)O
solubility (mole fraction)
Settings	278.15 K	283.15 K	288.15 K	293.15 K	298.15 K	303.15 K	308.15 K	313.15 K	318.15 K	323.15 K
in ethanol	0.000371	0.000428	0.000506	0.000598	0.000748	0.000839	0.000993	0.00125	0.0015	0.0018
in isopropanol	0.000124	0.000163	0.000213	0.000253	0.000339	0.000405	0.000515	0.000653	0.000843	0.00107
in methanol	0.00252	0.00285	0.0032	0.00358	0.00397	0.00453	0.00515	0.00575	0.00675	0.00788
in n-propanol	0.000191	0.000225	0.000296	0.000347	0.000399	0.000464	0.000586	0.000694	0.000879	0.00108
